This experiment deals with T1, thioredoxin reductase/thioredoxin (Homo sapiens, UniProt Q16881).
T1 sequence (Q16881 1-499 isoform Q16881-5): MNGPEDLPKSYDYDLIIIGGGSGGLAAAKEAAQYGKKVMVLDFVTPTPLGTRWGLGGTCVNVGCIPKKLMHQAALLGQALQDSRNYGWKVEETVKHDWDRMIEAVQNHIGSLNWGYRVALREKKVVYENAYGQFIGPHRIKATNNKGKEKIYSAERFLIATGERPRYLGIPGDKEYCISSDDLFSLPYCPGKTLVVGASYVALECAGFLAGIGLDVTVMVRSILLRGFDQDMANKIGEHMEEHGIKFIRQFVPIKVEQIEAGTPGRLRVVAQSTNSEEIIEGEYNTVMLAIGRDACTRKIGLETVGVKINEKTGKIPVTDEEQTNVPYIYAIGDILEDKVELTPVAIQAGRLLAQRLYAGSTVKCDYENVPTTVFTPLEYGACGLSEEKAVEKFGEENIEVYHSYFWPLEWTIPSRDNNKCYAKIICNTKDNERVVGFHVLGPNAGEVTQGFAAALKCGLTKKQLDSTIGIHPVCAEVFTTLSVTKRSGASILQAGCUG
Kind of experiment: thioredoxin reductase/thioredoxin-dependent insulin reduction assay. The following applies: Table III; read-out: in vitro IC50 TR/Trx (μg/ml) (converted). The class given is biochemical.

Consider `CCC(C)SSc1ncc[nH]1` (stereo not shown) [IV-2, 1-methylpropyl 2-imidazolyl disulfide], for which the IC50 is 37.2 µM.

Source of the values: patent US6372772B1, “Inhibitors of redox signaling and methods of using same” (Prolx Pharmaceuticals Corporation, priority 1997, dated 2002).
